Test: in vitro
Details: human, SH-SY5Y cells

IC50 at 27 h [µM]	Structure (SMILES)
40.6	CC([Se]c1ccc2ccccc2c1)c1nc(N)nc(N2CCN(C)CC2)n1 (configuration not stated)
66.1	CCC([Se]c1ccc2ccccc2c1)c1nc(N)nc(N2CCN(C)CC2)n1 (configuration not stated)

Reference: ChEMBL document CHEMBL5335798, “First-in-Class Selenium-Containing Potent Serotonin Receptor 5-HT6 Agents with a Beneficial Neuroprotective Profile against Alzheimer's Disease” (J Med Chem, 2024)
